Measured values: ChEMBL document CHEMBL5357013, “Identification of Spiro[chromene-2,4'-piperidine]s as Potent, Selective, and Gq-Biased 5-HT2C Receptor Partial Agonists” (ACS Med Chem Lett, 2024)

The chains behind the UniProt entries cited, without tags or fusion partners. Where a name states a change or a piece, a line headed by the entry shows the natural chain unless it says otherwise.
UniProt P28335: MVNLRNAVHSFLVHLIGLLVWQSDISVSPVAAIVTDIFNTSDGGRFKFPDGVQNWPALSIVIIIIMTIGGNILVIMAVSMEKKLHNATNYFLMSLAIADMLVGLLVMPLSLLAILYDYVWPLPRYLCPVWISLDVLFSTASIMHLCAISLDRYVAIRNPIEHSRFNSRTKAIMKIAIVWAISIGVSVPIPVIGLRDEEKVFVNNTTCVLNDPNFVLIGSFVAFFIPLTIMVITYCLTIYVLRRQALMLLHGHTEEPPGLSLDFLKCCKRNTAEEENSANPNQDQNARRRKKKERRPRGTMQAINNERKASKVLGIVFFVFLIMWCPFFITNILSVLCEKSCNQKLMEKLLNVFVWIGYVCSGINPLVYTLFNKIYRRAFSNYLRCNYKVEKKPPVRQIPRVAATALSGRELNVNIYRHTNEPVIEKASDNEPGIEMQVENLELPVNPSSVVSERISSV

Target: 5-hydroxytryptamine receptor 2C (Homo sapiens, UniProt P28335)
Assay: Partial agonist activity at 5-HT2CR (unknown origin) expressed in HEK293T cells assessed as increase in calcium flux measured for 3 mins by FLIPR assay
Type: functional, cell-based

## COc1c(O)cc2c3c1-c1ccccc1C[C@H]3NCC2 [(-)-ASIMILOBINE]
  EC50: 308 nM
